Experimental data published in publication PMC8269367, “DNA G-Quadruplexes Contribute to CTCF Recruitment”.

Target: T1, CTCF (Mus musculus) (UniProt Q61164)
T1 sequence: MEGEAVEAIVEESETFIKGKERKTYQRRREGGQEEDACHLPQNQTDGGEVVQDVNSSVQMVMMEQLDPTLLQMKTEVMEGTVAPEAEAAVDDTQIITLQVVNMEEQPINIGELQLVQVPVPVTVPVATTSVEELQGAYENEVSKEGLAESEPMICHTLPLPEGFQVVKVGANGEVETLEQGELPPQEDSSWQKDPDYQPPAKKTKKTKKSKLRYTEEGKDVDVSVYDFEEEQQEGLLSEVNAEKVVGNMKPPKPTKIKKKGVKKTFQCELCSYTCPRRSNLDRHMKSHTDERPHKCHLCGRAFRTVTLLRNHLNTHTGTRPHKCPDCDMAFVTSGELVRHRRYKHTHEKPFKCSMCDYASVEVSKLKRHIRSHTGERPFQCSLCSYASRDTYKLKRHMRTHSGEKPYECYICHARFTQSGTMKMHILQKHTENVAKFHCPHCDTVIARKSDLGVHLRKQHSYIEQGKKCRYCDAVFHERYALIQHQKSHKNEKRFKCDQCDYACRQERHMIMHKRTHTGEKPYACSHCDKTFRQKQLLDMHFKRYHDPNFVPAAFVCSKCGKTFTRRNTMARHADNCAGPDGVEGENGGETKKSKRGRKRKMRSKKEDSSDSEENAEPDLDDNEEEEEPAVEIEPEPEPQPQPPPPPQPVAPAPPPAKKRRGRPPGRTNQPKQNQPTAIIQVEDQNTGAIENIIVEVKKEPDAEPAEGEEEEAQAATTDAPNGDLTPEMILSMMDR
Assay: MST
Settings: 50 nM labelled protein, 0.61 nM-20 uM oligo, 140 mM potassium phosphate pH 7.2 (6.7 for i-motif N1-3; CTCF oligo CD at pH 6.7), 10 mM NaCl in oligo …

For TGGGGAGGGTGGGGAGGGTGGGGAAGG [MYC-G4], the Kd was 0.14 µM.
